Assay results reported in patent US20200215099A1, “NON-ANTICOAGULANT SULFATED OR SULFONATED POLYSACCHARIDES” (Baxalta Incorporated, priority 2012, published 2020).

System: contact pathway
Assay: CAT in normal plasma with and without CTI
Assay type: biochemical
Conditions: 1 pM hTF, 4 μM PL, ±41 μg/mL CTI, listed as sulfated 6-carboxy-icodextrin (35 kDa; 10.1% S)

concentration activating the contact pathway: 33000 ng/mL
Substance: sulfated 6-carboxy-icodextrin [6-carboxy-Icodextrin (unfractionated, batch 2)]
